Patent US20020035061A1, “COMPOSITIONS AND METHODS FOR TREATING INFECTIONS USING CATIONIC PEPTIDES ALONE OR IN COMBINATION WITH ANTIBIOTICS” (priority 1996, published 2002)

Key:
S. pyogenes = assay: Agarose dilution assay (MIC); type: cell-based; details: S. pyogenes SPY003
[1] = Reversed phase HPLC analysis of peptide analogue formulations; type: physicochemical; details: 400 μg/mL in formulation D
Procedure: Reversed-phase HPLC, which provides an analytical method for peptide quantification, is used to examine peptides in two different formulations. A 400 μg/mL solution of MBI 11CN prepared in formulations C1 and D is analyzed by using a stepwise gradient to resolve free peptide from other species. Standard chromatographic conditions are used as follows:
Solvent A: 0.1% trifluoroacetic acid (TFA) in water
Solvent B: 0.1% TFA/95% acetonitrile in water
Media: POROS® R2-20 (polystyrene divinylbenzene)

[2] = Circular dichroism spectroscopy; type: physicochemical
sheep RBC = assay: Red blood cell (RBC) lysis assay, standardized conditions (1% RBC); type: cell-based; details: 1% (v/v) sheep RBC, 500 μg/ml peptide, pH 6-7
[3] = In vitro lifetime of free peptide in plasma and blood; type: in vitro ADME, sheep; details: for apparent half-life of free peptide in blood: sheep plasma, 37° C., 100 μg/mL
[4] = Peptide levels in blood in vivo after intravenous injection; design: species or system CD1 ICRBR strain mice
Procedure: Peptide levels in plasma in vivo are measured after iv or ip administration of 80-100% of the maximum tolerated dose of peptide analogue in either formulation C1 or D. MBI 11CN in formulation C1 is injected intravenously into the tail vein of CD1 ICRBR strain mice. At various times post-injection, mice are anesthetized and blood is drawn by cardiac puncture. Blood from individual mice is centrifuged to separate plasma from cells. Plasma is then analyzed by reversed phase HPLC column. […] Each data point represents the average blood level from two mice. In this assay, the detection limit is approximately 1 μg/ml, less than 3% of the dose administered
The earliest time point at which peptide can be measured is three minutes following injection, thus, the maximum observed concentration (in μg/ml) is extrapolated back to time zero (FIG. 15). The projected initial concentration corresponds well to the expected concentration of between 35 and 45 μg/ml.
(§1) At set times post-injection, each group of animals are anesthetized, blood is drawn, and plasma obtained by centrifugation. The amount of peptide or agent in the plasma supernatant is analyzed as for the in vitro determination.

[5] = Peptide levels in blood in vivo after intraperitoneal injection; design: species or system CD1 ICRBR strain mice; details: ip 40 mg/kg, formulation C1
Procedure: In addition, MBI 11CN is also administered to CD1 ICRBR strain mice by a single ip injection at an efficacious dose level of 40 mg/kg. Peptide is administered in both formulations C1 and D to determine if peptide complexation has any effect on blood levels. At various times post injection, mice are anesthetized and blood is drawn by cardiac puncture. Blood is collected and analyzed as for the iv injection.
In contrast, peptide in formulation D is present at a level above 2 μg/ml for approximately two hours. Therefore, formulation affects entry into, and maintenance of levels of peptide in the blood.
as §1

[6] = Acute single dose toxicity, intraperitoneal route, isotonic saline; type: in vivo; details: Swiss CD1 mice, 5 days
Procedure: In vivo toxicity of a peptide is measured through administration of a range of doses to animals, typically mice, by a route defined in part by the intended clinical use. The survival of the animals is recorded and LD50, LD90-100, and maximum tolerated dose (MTD) can be calculated to enable comparison of analogues. Indolicidin analogues less toxic than indolicidin are preferred.
(§2) The acute, single dose toxicity of various indolicidin analogues is tested in Swiss CD1 mice using various routes of administration. In order to determine the inherent toxicities of the peptide analogues in the absence of any formulation/delivery vehicle effects, the peptides are all administered in isotonic saline with the final pH between 6 and 7.
Intraperitoneal route. Groups of 6 mice are injected with peptide doses of between 80 and 5 mg/kg in 500 μl dose volumes. […] The LD50 values are calculated using the method of Reed and Muench (J. of Amer. Hyg. 27:493-497, 1938).

[7] = Acute single dose toxicity, intravenous route, isotonic saline; type: in vivo; details: Swiss CD1 mice, 5 days
Procedure: In vivo toxicity of a peptide is measured through administration of a range of doses to animals, typically mice, by a route defined in part by the intended clinical use. […]. Indolicidin analogues less toxic than indolicidin are preferred.
as §2
Intravenous route. […]. […]

[8] = Single and multiple dose toxicity, intravenous injection, formulations; type: in vivo, outbred ICR mice
[9] = Acute single dose toxicity, subcutaneous route; type: in vivo, Swiss CD1 mice
Procedure: as §2
Subcutaneous route. The toxicity of MBI 11CN is also determined after subcutaneous (SC) administration. […]. After administration, the mice are observed for a period of 5 days. None of the animals died at any of the dose levels within the 5 day observation period. […]. […] These symptoms are reversible, disappearing in all mice by the second day of observations.

[10] = Toxicity of APO-modified and unmodified MBI 11CN, single iv dose; type: in vivo, Swiss CD-1 mice
[11] = test system: mammalian red blood cells
[12] = iv, formulation D, 2 injections of 4.1 mg/kg, 10 min interval
[13] = 3 mg/kg single iv dose, 0.9% saline
[14] = 5 mg/kg single iv dose, 0.9% saline
[15] = 8 mg/kg single iv dose, 0.9% saline
[16] = 10 mg/kg single iv dose, 0.9% saline
[17] = 13 mg/kg single iv dose, 0.9% saline
[18] = single iv dose, 0.9% saline, Swiss CD-1 mice

ILKKWPWWPWRRK [MBI 11CN]
MIC (S. pyogenes): 8 µg/mL | free peptide peak [1]: < 10% | min λ, Phosphate buffer ([2]; CD spectrum, 10 mM sodium phosphate buffer, pH 7.2): 200 nm | min λ, TFE ([2]; CD spectrum, phosphate buffer and 40% (v/v) trifluoroethanol): 200 nm | Conformation in buffer ([2]; CD, 10 mM sodium phosphate buffer, pH 7.2): Unordered | Conformation in TFE ([2]; CD, phosphate buffer and 40% (v/v) trifluoroethanol): Unordered | % lysis at 500 μg/ml (sheep RBC): 9% | peptide immediately released from formulation-peptide complex ([3]; formulation D, on addition to the blood): up to 50% | apparent half-life of free peptide in blood ([3]; formulation C1): 1.5 h | apparent half-life of free peptide in blood ([3]; formulation D): 1.5 h | resistance to plasma peptidases and proteases ([3]; sheep's blood): relatively resistant to plasma peptidases and proteases | half life of free circulating peptide ([4]; formulation C1, mice): 2.1 min | free circulating peptide in blood ([4]; formulation D, mice): not detectable | blood level after 60 minutes [5]: non-detectable levels | LD50 [6]: 34 mg/kg | LD90-100 [6]: 40 mg/kg | MTD [6]: 20 mg/kg | LD50 [7]: 5.8 mg/kg | LD90-100 [7]: 8.0 mg/kg | MTD [7]: <4 mg/kg | MTD ([8]; Intravenous injection, single dose, outbred ICR mice (Table 32)): 6.1 mg/kg | MTD ([8]; iv, formulation C (lyophilized)): 3.0 mg/kg | toxicity ([8]; iv, formulation C (lyophilized), 6.1 mg/kg): 10% | toxicity ([8]; iv, formulation C (lyophilized), 12 mg/kg): 100% | MTD ([8]; iv, formulation C (lyophilized), ICR mice): 3.0 mg/kg | Result (mortality) [8, 12]: 66% | Result (toxicity) [8, 12]: 66% toxicity | toxicity ([8]; iv, non-lyophilized solution, formulation C1, 3.0 mg/kg): 100% | toxicity (mortality) ([8]; iv, two injections of 4.1 mg/kg with a 10 minute interval): 60% | LD50 [9]: greater than 128 mg/kg | LD90-100 [9]: greater than 128 mg/kg | MTD [9]: greater than 128 mg/kg | % Dead [10, 13]: 0% | Cumulative No. Dead [10, 13]: 0 | Cumulative No. Surviving [10, 13]: 12 | % Dead [10, 14]: 0% | Cumulative No. Dead [10, 14]: 0 | Cumulative No. Surviving [10, 14]: 6 | % Dead [10, 15]: 100% | Cumulative No. Dead [10, 15]: 6 | Cumulative No. Surviving [10, 15]: 0 | % Dead [10, 16]: 100% | Cumulative No. Dead [10, 16]: 12 | Cumulative No. Surviving [10, 16]: 0 | % Dead [10, 17]: 100% | Cumulative No. Dead [10, 17]: 18 | Cumulative No. Surviving [10, 17]: 0 | LD50 ([10]; single iv dose in 0.9% saline): 7 mg/kg | dose with all subjects dying ([10]; single iv dose in 0.9% saline): 8 mg/mL | highest dose giving 100% survival ([10]; single iv dose in 0.9% saline): 5 mg/kg | LD50 [10, 18]: 7 mg/kg | LD90-100 [10, 18]: 8 mg/kg | MTD [10, 18]: 5 mg/kg | lysis [11]: 3.2% | red blood cell lysis [11]: substantial lysis | % Lysis ([11]; […], 37° C., 1 hour): 0.8%
